Target: BCL6 (Homo sapiens (Human), UniProt P41182)
Test: Immunofluorescence high content imaging of BCL6 degradation in T47D cells
Experimental: Immunofluorescence Protocol for High Cotent Imaging of BCL6
T47D cells were seeded in 100 μl volume of RPMI1640-10% FBS in a 96-well black/clear bottom plates for adherent lines (Corning #3904).
Day 1. T47D breast cancer epithelial cells were seeded at a density so that confluence is ˜70-90% at endpoint. Cells were seeded at 7K/0.1 ml/well the morning prior to the addition of exemplary bifunctional degradation compounds.
Day 2. Prepare an 11 point 3-fold serial dilution of exemplary bifunctional compound in DMSO and aliquot an appropriate volume to cell growth media to generate a 2× final concentration of exemplary bifunctional compound. Add an equal volume (0.1 ml) of 2× exemplary bifunctional compound/media mix to previously plated cells, for a final top concentration in aqueous cell growth media of 0.1 or 1 μM. Incubate for 3 days at 37° C., 5% CO2.
Day 5 Immunofluorescence. Discard cell media. Wash wells with 200 μl of room temperature phosphate-buffered saline (PBS). Prepared 4% paraformaldehyde (PFA) from 16% PFA (Electron Microscopy Sciences #15710) using 1×PBS. Fifty μl of 4% PF was added to each well and incubate for 15 minutes at room temperature to fix the cells. The PFA was aspirated and the cells washed twice with PBS (200 μl)).
Prepared 0.1% Triton X-100 in PBS using 10% triton X-100 stock. […]
Plates were equilibrated to room temperature prior to reading. […]

Q: What does the source list for CNC(=O)COc1cc2cc(Nc3nc(N4CCO[C@H](COc5ccc6c(c5)C(=O)N(C5CCC(=O)NC5=O)C6=O)C4)ncc3Cl)ccc2n(C(C)C)c1=O (some centres unmarked)?
A: Dmax (%)**: B (50 <= B < 70); IC50 (read-out: IC50 (nM)***): 50 to 100 nM

From patent US12310975B2, “Modulators of BCL6 proteolysis and associated methods of use” (Arvinas Operations, Inc., priority 2019, dated 2025)
